Earlier results in US20260167740A1, “MEANS AND METHODS FOR TREATING CASTRATION-RESISTANT PROSTATE CANCER” (Merus N.V., priority 2022, published 2026).

Test system: castration-resistant prostate cancer
Details: CRPC / hormone refractory prostate cancer; phase II trials (Ziada et al. 2004; Molife et al. 2014); cited from earlier work

trastuzumab: ERBB2-targeting agent
antitumor activity in the clinical setting: failure to demonstrate antitumor activity
